The values that follow are results of earlier work, collected in paper PMC12865480 (Pharmaceuticals, 2025).

By UniProt entry, the sequences of proteins in these tests, tags left out.
UniProt Q60492, whole entry: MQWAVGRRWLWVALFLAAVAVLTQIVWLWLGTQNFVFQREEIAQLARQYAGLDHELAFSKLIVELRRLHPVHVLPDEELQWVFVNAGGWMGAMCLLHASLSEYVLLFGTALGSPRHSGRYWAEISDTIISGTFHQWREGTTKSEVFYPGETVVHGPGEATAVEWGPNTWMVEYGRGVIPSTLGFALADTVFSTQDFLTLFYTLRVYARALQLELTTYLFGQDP

Data set [1] relates to capsaicin mouse model of neuropathic pain. The note with it: result in words; cited from earlier work.
In data set [2] the test system is human prostate cancer cell line DU145. To be noted: result in words; cited from earlier work.
For the next data set, the target named is σ1 receptor (Cavia porcellus, UniProt Q60492). The note with it: read-out: Ki σ1; earlier study; cited from earlier work.

With `c1ccc(CNCC[C@@H]2CCC[C@H](c3ccccc3)O2)cc1`, the “analgesic activity in the mouse capsaicin assay” value in data set [1] is “analgesically active”. Further, in data set [2], the “growth of the human prostate cancer cell line DU145” value is given as “inhibited the growth”.

Consider `c1ccc(CNCC[C@H]2CCC[C@@H](c3ccccc3)O2)cc1`, for which, in data set [1], the “analgesic activity in the mouse capsaicin assay” value is “analgesically active”. In addition, the “growth of the human prostate cancer cell line DU145” value in data set [2] is listed as “inhibited the growth”.

As usually defined, the Ki is a dissociation constant, usually derived from enzyme kinetics or from competition with a known ligand. Regarding `c1ccc(CNCC[C@@H]2CCO[C@H](c3ccccc3)O2)cc1`, the inhibitory constant (Ki) at σ1 receptor was 6 nM.
